# Ab-14 light chain CDR variants: yeast mating affinities

Reference: Li et al. 2023, doi:10.1038/s41467-023-39022-2. File: FLAb, binding data.

Antigen: PDVDLGDISGINAS, a 14-residue peptide of the SARS-CoV-2 spike HR2 region.

Each scFv is VH, a (GGGGS)3 linker, VL, as in the parent Ab-14, and differs from it in the CDRs of the light chain only.
VH: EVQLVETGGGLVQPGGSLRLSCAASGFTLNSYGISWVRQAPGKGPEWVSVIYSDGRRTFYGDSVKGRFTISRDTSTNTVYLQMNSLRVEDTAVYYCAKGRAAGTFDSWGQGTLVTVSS
VL: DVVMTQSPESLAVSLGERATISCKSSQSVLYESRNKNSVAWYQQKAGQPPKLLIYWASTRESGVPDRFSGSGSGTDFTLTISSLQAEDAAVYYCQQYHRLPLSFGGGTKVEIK

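The parent was found by panning a naive human phage display library on the peptide. These sequences belong to a second round, designed from the earlier measurements on random variants of the parent. Their group label is 14L_GP_Gibbs (GP: Gaussian process model; Gibbs: Gibbs sampling; a sequence that several methods proposed may carry one label only). The assay is AlphaSeq: two haploid yeast populations carry antibody and antigen on their surface. After mating in shaken culture at 30 °C for 16 h, diploids were selected and their barcode pairs sequenced. Each replicate has its own calibration line, from reference interactions of the BCL2 family. Mating was done six times.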

The parent's light chain CDRs are KSSQSVLYESRNKNSVA, WASTRES, QQYHRLPLS; each variant's own CDRs replace them letter for letter. Scale: log10 of Kd in nM, estimated from mating counts; low values are strong binders. "nd" marks a missing value. The strain was present, yet no cells mated with the target were sequenced in that replicate, which points to weak or no binding. The parent sequence was in this pool as ten entries: three were never detected, three once, and four in most replicates, with averages from 0.34 to 2.37. The range of this assay differs from that of the first round, and the authors advise against merging the two. Three control strains display no target. For all light chain designs, 4% of the pairings with them gave a signal, with a median of 2.64 and one signal in twenty below 1.59, so weak values seen in few replicates may be background. Also given: how often the same scFv was detected with the empty control strains, with their mean in brackets. The authors averaged sequences with at least three values out of six and counted those with two or fewer as poor binders.

CDR-L1 | CDR-L2 | CDR-L3 | log10 Kd (nM) by replicate | signal with controls
KFSGSHLYESRMGNSVA | NASQRES | QQYHRLPLS | 0.08 / -0.01 / -0.21 / -0.25 / -0.17 / 0.10 | 3 of 18 (2.51)
KYSQSDEYESRNFNSVA | NASTRLM | QQYHRLPLS | 0.80 / 0.58 / 0.33 / 0.42 / 0.39 / 0.63 | 4 of 18 (3.51)
KLSQSNKYESRMKNSVA | NASQREQ | QQYHRLPLS | 0.64 / 1.32 / 0.94 / 0.48 / 0.75 / 1.49 | 0 of 18
KLSCSELYDEPNKNSVA | NASTRDM | QQYHRLPLS | nd / 0.94 / 2.41 / 1.56 / 1.44 / 1.60 | 1 of 18 (2.44)
KWSFLQLGESRNKNSVA | DASTRES | QQYHRLPLS | 0.18 / 0.09 / -0.10 / -0.23 / -0.16 / 0.19 | 1 of 18 (2.12)
KLRQSCLYESRNKNNVA | MASQRCS | QQYHRLPLS | 0.72 / 0.75 / 0.33 / 0.31 / 0.50 / 0.34 | 0 of 18
KLQSLELYEGRWKNSVA | SASTRES | QQYHRLPLS | 0.55 / 0.46 / 0.22 / 0.23 / 0.13 / 0.26 | 1 of 18 (2.20)
KSSQSVLGEDGNKNSVA | HASVREE | QQYHRLPLM | 0.25 / 0.39 / 0.55 / 0.15 / 0.18 / 0.43 | 1 of 18 (1.51)
KLSQSVDYESRNKAQVA | DASTRMS | QQYHRLPLS | 0.26 / 0.20 / 0.03 / -0.09 / -0.04 / 0.20 | 1 of 18 (2.81)
KVMQSELYEDRNANNVA | NGSTRES | QQYHRLPLS | 0.79 / 0.44 / 0.58 / 0.64 / 0.49 / 0.71 | 3 of 18 (3.22)
KQQFSGMMGSRNKNSVA | KASTRES | QQYHRLPLS | 2.37 / 1.33 / nd / 2.33 / 1.55 / 1.98 | 0 of 18
VLSASELYEDRPKNSVA | NASTRMQ | QQYHRLPLS | -0.10 / -0.07 / -0.13 / -0.29 / -0.19 / -0.09 | 3 of 18 (3.70)
KLSMSGLYESRNWNSVA | EASTRES | QDYHRLPLS | 1.05 / 1.64 / 0.66 / 1.33 / 0.70 / 1.69 | 0 of 18
KAMQMVWQESRNKNSVA | NASTRMQ | QQYHRLPLS | 0.21 / 0.15 / -0.36 / 0.03 / -0.01 / -0.33 | 1 of 18 (1.76)
KISGSYLGLSRNWNAVA | NASQREQ | QQYHRLPLS | 0.41 / 0.34 / 0.12 / 0.27 / 0.21 / 0.45 | 0 of 18
KLSQQAEYESRNKNSVA | QASTREM | QQYHRLPLT | -0.45 / -0.34 / -0.31 / -0.27 / -0.14 / -0.12 | 0 of 18
KVQQSWLYESRMQNNVA | NASLRES | QQYHRLPLS | 0.12 / 0.00 / 0.16 / -0.18 / -0.08 / 0.19 | 2 of 18 (3.62)
KLQMMVEMESRNPNSVA | SASTRLL | QQYHRLPLS | -0.06 / -0.22 / 0.00 / -0.45 / -0.25 / 0.01 | 0 of 18
KVFPSELGLSRNKNSVA | DASTRES | QQYHRLPLS | -0.13 / -0.30 / -0.36 / -0.38 / -0.23 / -0.21 | 1 of 18 (2.69)
KCYQSQDYESRNKNAVA | NASQREQ | QQYHRLPLS | -0.08 / -0.03 / -0.23 / -0.23 / -0.12 / 0.18 | 1 of 18 (2.52)
KVSQGMWYESRMKNSVA | NASMREQ | QQYHRLPLQ | 0.49 / 0.37 / 0.40 / 0.20 / 0.18 / 0.51 | 7 of 18 (3.85)
KVSFSVMLESRNKNAVA | EASQRES | QQYHRLPLS | 0.47 / 0.29 / 0.54 / 0.38 / 0.33 / 0.69 | 3 of 18 (3.40)
KFSQSNLYEDRNQNSVA | NASQREQ | QDYHRLPLS | 0.14 / 0.38 / 0.44 / 0.40 / 0.40 / 0.32 | 1 of 18 (1.90)
KLSQSEPYESRNKNSVA | NASYRMS | QQYHRLPLH | 0.93 / 0.83 / 0.51 / 0.58 / 0.76 / 0.94 | 1 of 18 (2.96)
KLQFSSGMSQRNKNSVA | SASTRES | QQYHRLPLS | 0.07 / 0.25 / 0.02 / -0.21 / -0.20 / 0.24 | 1 of 18 (2.43)
KVSFSVMLESRNKNAVA | EASTRES | QQYHRLPLS | 0.34 / 0.30 / 0.30 / 0.02 / 0.32 / 0.51 | 2 of 18 (2.73)
KVSPSWLYEDRNCNAVA | QASQRES | QQYHRLPLS | 0.31 / 0.39 / 1.11 / 0.04 / 0.19 / 0.49 | 0 of 18
KLSQEYCYGDRNKNSVA | QASTREQ | QQYHRLPLS | 0.44 / 0.08 / -0.07 / 0.13 / 0.50 / 0.41 | 0 of 18
KLSGLGLYGQRNKNSVA | EASYRED | QQYHRLPLS | -0.44 / -0.48 / -0.51 / -0.53 / -0.40 / -0.46 | 0 of 18
KLQWSWMMQSRNKNSVA | HASMRLS | QQYHRLPLS | nd / nd / nd / nd / nd / nd | 0 of 18
KLMQSSLYDSRNKNSVA | NASTREW | QQYHRLPLS | 0.17 / -0.07 / -0.01 / -0.22 / 0.04 / 0.03 | 0 of 18
KLMTSDLYESRMVNSVA | EASTRMD | QQYHRLPLS | -0.14 / -0.11 / -0.21 / -0.44 / -0.38 / -0.15 | 0 of 18
KLSQSDGYESRNFNSVA | NASTRSH | QQYHRLPLS | 0.20 / 0.18 / -0.05 / 0.06 / 0.16 / 0.04 | 1 of 18 (3.04)
HLSQSVGGEMRNKNSVA | EAQTREQ | QQYHRLPLS | 0.44 / 0.22 / -0.35 / -0.03 / 0.35 / 0.04 | 1 of 18 (1.24)
KHEEWVEYESRNKNSVA | NASTRLS | QQYHRLPLS | -0.22 / -0.35 / -0.37 / -0.50 / -0.40 / -0.04 | 0 of 18
KLSMLWLMLSRNHNSVA | SASTRES | QQYHRLPLS | 3.00 / 1.18 / nd / 1.08 / 1.29 / 2.62 | 0 of 18
KQQSSVMMGSRNKNSVA | SASKREE | QQYHRLPLS | 0.81 / 0.31 / 0.21 / 0.23 / 0.29 / 0.65 | 0 of 18
KLSQQGHYGSRNANSVA | NASTREQ | QQYHRLPLS | 0.24 / -0.05 / 0.02 / -0.11 / 0.04 / 0.08 | 3 of 18 (4.10)
KIFQSVLYEDRQKNSVA | NASDRMS | QQYHRLPLS | -0.11 / 0.20 / 0.03 / -0.19 / -0.24 / 0.17 | 0 of 18
KLQQSVGYESRNQNAVA | EASQREE | QQYHRLPLS | 0.08 / 0.08 / -0.04 / 0.08 / -0.30 / -0.02 | 1 of 18 (2.25)
KFSGSQLYESRNKNSVA | NASTRES | QQYRRLPLS | -0.18 / -0.21 / -0.32 / -0.44 / -0.23 / -0.21 | 0 of 18
KYAQSDLYESRNFNNVA | AASTRES | QQYHRLPLS | 0.07 / -0.14 / -0.13 / -0.15 / -0.27 / -0.02 | 0 of 18